Test results taken from patent EP2890687B1, “SALTS OF BENZOTHIAZOLONE COMPOUND AS BETA-2-ADRENOCEPTOR AGONIST” (priority 2012, dated 2014).

Assays:
Human skMC = assay: cAMP response in primary human skeletal muscle cells (differentiated skeletal myotubes); settings: read-out: Primary cells
Rat skMC = assay: cAMP response in primary rat skeletal muscle cells; settings: read-out: Primary cells, differentiated skeletal myotubes
Rat cardiomyocytes = assay: cAMP response in primary rat cardiomyocytes; settings: read-out: Primary cells

**Q.** COc1ccc(CC(C)NCC(O)c2ccc(O)c(NC=O)c2)cc1 (stereo not drawn) was tested. Which EC50 (Human skMC) did it give?
**A.** 0.2 nM

**Q.** And the EC50 (Rat skMC)?
**A.** 0.9 nM

**Q.** And the EC50 (Rat cardiomyocytes)?
**A.** 2.9 nM
